Where two headings read alike, the source gives them in different places.
Target: ζ opioid receptor (Homo sapiens, UniProt Q9NZT2)
Assay: Competition for binding of [3H][Met5]enkephalin (4.0 nM) in nuclear homogenates of HT-29 human colon tumors
Conditions: for IC50: 4.0 nM [3H][Met5]enkephalin

Protein sequences, listed by entry. Tags and fused reporters are not part of them.
UniProt Q9NZT2, whole entry: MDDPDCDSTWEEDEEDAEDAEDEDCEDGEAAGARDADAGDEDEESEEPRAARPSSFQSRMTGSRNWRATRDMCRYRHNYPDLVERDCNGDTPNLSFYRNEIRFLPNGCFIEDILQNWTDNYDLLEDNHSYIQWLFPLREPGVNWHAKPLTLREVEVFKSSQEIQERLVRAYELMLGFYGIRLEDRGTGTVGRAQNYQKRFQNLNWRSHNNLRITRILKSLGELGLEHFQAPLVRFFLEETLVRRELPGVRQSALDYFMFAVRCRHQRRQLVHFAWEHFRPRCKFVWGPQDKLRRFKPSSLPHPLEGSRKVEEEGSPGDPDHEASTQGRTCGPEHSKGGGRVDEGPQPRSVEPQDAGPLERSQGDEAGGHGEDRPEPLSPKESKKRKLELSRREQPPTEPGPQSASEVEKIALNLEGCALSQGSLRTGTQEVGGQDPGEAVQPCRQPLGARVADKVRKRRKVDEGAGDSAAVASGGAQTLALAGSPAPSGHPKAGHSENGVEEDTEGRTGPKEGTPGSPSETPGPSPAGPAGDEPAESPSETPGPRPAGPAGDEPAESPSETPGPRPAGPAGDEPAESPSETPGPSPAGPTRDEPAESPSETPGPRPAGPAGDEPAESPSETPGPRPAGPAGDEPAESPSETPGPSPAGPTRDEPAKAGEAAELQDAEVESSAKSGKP

Row | SMILES | ability to compete in displacing [3H]-[Met5]-enkephalin binding | IC50 [nM] | Ki (read-out: KI nM, calculated from IC50 by Cheng and Prusoff) [nM] | IC50 (unit M printed in cell) [nM] | Ki (unit M printed in cell) [nM]
1 | Cc1cccc(NC(=O)N[C@@H]2N=C(c3ccccc3)c3ccccc3N(C)C2=O)c1 | not very competitive | 1250 | 960 |  | 
2 | CN1C(=O)[C@@H](NC(=O)c2cc3ccccc3[nH]2)N=C(c2ccccc2)c2ccccc21 | not very competitive |  |  | > 10000 | > 10000
